# Experimental data as given in paper PMC6272548, “Synthesis and Antiplatelet Activity of Antithrombotic Thiourea Compounds: Biological and Structure-Activity Relationship Studies” (Molecules, 2015).
# Test system: human platelets
# Test: Platelet aggregation of human citrated platelet-rich plasma induced by arachidonic acid (turbidimetric)
# Assay type: cell-based
# Experimental: The human blood samples were obtained from adult volunteers, who abstained from the use of drugs or other substances that could interfere with the experiment for at least 15 days prior. […] The platelet rich (PRP) and poor (PPP) plasma were prepared by differential centrifugation and platelet aggregation was monitored using the turbidimetric method described by Born and Cross with an aggregometer 4-Pack® (Helena Laboratories, Beaumount, TX, USA). Different concentrations of the synthetic derivatives and the vehicle (DMSO 1%) were pre-incubated for 2 min before addition of the agonists (500 μM arachidonic acid and 5 μg/mL collagen). The platelet aggregation tests were performed in triplicate and the data were statistically analyzed.
smiles,measurement,setting,value
"CC(=O)Oc1ccccc1C(=O)O [Aspirin, acetylsalicylic acid, reference compound]",inhibition at 100 µM,"Platelet, 100 μM, healthy human platelets, read-out: Inhibition of AA-induced platelet aggregation",97.5%
same,IC50,"arachidonic acid-induced (500 μM), human platelet-rich plasma, read-out: IC50, concentration that caused 50% inhibition of platelet aggregation",30.6 ± 0.4 µM
